For two compounds, IC50 results are on record in patent publication US12404260B2, “Pyridine rings containing derivatives as MALT1 inhibitors” (Janssen Pharmaceutica NV, priority 2019, dated 2025).

Protein sequences, listed by entry. Tags and fused reporters are not part of them.
UniProt Q9UDY8, whole entry: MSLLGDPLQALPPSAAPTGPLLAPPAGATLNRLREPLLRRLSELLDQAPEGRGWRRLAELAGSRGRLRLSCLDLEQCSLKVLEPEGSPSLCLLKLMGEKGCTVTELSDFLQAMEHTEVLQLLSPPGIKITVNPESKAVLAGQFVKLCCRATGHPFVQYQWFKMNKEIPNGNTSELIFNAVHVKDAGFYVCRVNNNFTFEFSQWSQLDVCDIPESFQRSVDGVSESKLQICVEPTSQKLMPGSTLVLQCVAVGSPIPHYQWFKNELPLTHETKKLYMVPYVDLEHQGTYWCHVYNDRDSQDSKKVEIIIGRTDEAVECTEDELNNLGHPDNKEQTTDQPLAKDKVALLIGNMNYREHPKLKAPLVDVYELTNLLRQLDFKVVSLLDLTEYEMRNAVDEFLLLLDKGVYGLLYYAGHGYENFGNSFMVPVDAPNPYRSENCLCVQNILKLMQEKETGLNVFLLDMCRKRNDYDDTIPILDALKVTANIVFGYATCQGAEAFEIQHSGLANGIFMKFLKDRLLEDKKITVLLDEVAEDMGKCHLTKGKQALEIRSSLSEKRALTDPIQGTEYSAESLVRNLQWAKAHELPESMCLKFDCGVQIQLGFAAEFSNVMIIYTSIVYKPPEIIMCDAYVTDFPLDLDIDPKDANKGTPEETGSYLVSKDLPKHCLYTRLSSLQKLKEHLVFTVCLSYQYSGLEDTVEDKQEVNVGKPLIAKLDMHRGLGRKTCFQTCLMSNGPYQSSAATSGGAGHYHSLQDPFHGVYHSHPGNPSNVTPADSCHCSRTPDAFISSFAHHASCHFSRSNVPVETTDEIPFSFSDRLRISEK

Assay [1] addresses full-length MALT1 protein (Strep-MALT1(1-824)-His) (Homo sapiens, UniProt Q9UDY8). The experiment in a line: MALT1 Biochemical Protease Assay. Conditions: read-out: MALT1_Biochemical activity (Ac-LRSR-amc) IC50; 10 nM FL MALT1, 200 μM Ac-LRSR-AMC, 50 min pre-incubation, 4 h at RT. On the procedure: MALT1 protease activity was assessed in an in vitro assay using a tetrapeptide as substrate and full-length MALT1 protein (Strep-MALT1(1-824)-His) purified from baculovirus-infected insect cells. The tetrapeptide LRSR is coupled to AMC (7-amino-4-methylcoumarin) and provides a quenched, fluorescent substrate for the MALT1 protease (SM Biochemicals). Cleavage of AMC from the Arginine residue results in an increase in coumarin fluorescence measured at 460 nm (excitation 355 nm). The final assay buffer consisted of 10 nM FL MALT1 protein, 200 μM Ac-LRSR-AMC, 50 mM Tris pH 7.5, 0.6 M Citrate, 1 mM DTT, 1 mM EDTA, 0.05% BSA and 1.5% DMSO. Test compounds were spotted at 50 nL in 100% DMSO per well of a black 384-Proxiplate (Perkin Elmer). Test compound concentrations ranged from 30 μM to 0.5 nM using 11 dilution steps (1:3). Background signal was measured from control wells containing assay buffer without enzyme which functions as low control (LC). […] Substrate was added subsequently and fluorescence was measured in Labsystems fluoroskan at excitation 355 nm and emission 460 nm to determine time 0. The reaction was subsequently incubated for 4 h at RT and fluorescence was measured. […] Characterization of the substrate Ac-LRSR-AMC determined the Michaelis constant KM at 200 μM.
IC50 values were calculated using the following formula (Z prime should be >0.5): […]

For assay [2], the system named is secretion of IL10 by OCI-LY3 ABC-DLBCL cells. The experiment in a line: Human IL10 Mesoscale assay (OCI-LY3). Conditions: read-out: Human IL10 Mesoscale assay (OCI-LY3) IC50, 24 h incubation, IL10 in supernatant. On the procedure:
(§1) NFKB signaling regulates the secretion of multiple cytokines, including IL6 and IL10. Secretion of the cytokines IL6 and IL10 by OCI-LY3 ABC-DLBCL cells was measured using a mesoscale assay. Inhibition of NFKB signaling by MALT1 inhibitors results in a decrease of IL6/10 secretion.
(§2) OCI-LY3 cells were propagated in RPMI-1640 (Sigma Aldrich) supplemented with 10% fetal bovine serum (HyClone), 1 mM sodium pyruvate (Invitrogen), 2 mM L-glutamine (Sigma Aldrich) and 1% PenStrep (Sigma Aldrich). Cell passage number should not exceed 30. Cells should be kept between 0.5-2.5 million cells per mL during culturing and cells should be supplemented every 2-3 days with fresh 50 μM beta-mercaptoethanol. No beta-mercaptoethanol was used during the mesoscale assay.
(§3) For the Mesoscale assay, 100,000 OCI-LY3 cells were seeded per well into black-colored 96-well plates with clear bottom (Corning #3904) and test compounds were added in 9 dilution steps (1:2) ranging from 15 μM to 58.6 nM (final DMSO concentration 0.3%). DMSO control wells were used to determine the maximum signal (High Control (HC)). […] After 3× washes with PBS+0.05% Tween-20, plates were incubated with 150 μL 2× Read Buffer T and read on SECTOR imager.

Assay [3] concerns secretion of IL6 by OCI-LY3 ABC-DLBCL cells. The experiment in a line: Human IL6 Mesoscale assay (OCI-LY3). The note with it: read-out: Human IL6 Mesoscale assay (OCI-LY3) IC50, 24 h incubation, IL6 in supernatant. On the procedure: as §1, §2, §3

As for `CO[C@H](C)c1c(NC(=O)Nc2cnc(-n3ncc(C(C)(C)O)n3)c(Cl)c2)cnc(C)c1Cl`, the IC50 stood at 1200 nM in assay [1], 1580 nM in assay [2] and 2690 nM in assay [3].

In the case of `CO[C@@H](C)c1c(NC(=O)Nc2cnc(-n3ncc(C(C)(C)O)n3)c(Cl)c2)cnc(C)c1Cl`, the IC50 came to 40 nM in assay [1], 100 nM in assay [2] and 150 nM in assay [3].

One may read the IC50 as the concentration that inhibits the measured activity by half.
